Results reported in patent US4710500A, “1-(4'-fluorophenyl)-3,5-substituted indoles useful in the treatment of psychic disorders and pharmaceutical compositions thereof” (H. Lundbeck A/S, priority 1985, dated 1987).

Protein sequences, listed by entry. Tags and fused reporters are not part of them.
UniProt P14842, whole entry: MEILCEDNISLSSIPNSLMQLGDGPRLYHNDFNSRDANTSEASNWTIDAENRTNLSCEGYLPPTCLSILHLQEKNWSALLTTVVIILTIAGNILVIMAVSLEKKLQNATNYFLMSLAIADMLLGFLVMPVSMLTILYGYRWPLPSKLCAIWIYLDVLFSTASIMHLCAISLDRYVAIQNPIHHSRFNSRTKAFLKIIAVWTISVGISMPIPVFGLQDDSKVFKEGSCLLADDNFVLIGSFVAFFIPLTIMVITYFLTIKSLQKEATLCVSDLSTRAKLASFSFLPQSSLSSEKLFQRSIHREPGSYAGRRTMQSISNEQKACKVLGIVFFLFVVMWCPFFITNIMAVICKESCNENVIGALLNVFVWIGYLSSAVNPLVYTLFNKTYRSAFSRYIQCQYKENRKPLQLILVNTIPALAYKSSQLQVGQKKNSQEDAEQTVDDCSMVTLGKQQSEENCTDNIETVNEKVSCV

Biological target: T1, 5-HT2 receptor (Rattus norvegicus, UniProt P14842)
T1 construct: from tissue; host or cells: living rats (in vivo), CNS
Assay: Quipazine inhibition (head twitches)
Format: in vivo
Conditions: sc, 2 h, read-out: Qvipaz. inh. ED50(sc)

## CN(C)CCCN1c2ccccc2Sc2ccc(Cl)cc21 [Clorpromazine, reference compound]
  ED50: 0.38 µmol/kg
